Marks after values point to notes of the source that are not given here.
How the values were obtained:
[1] = target: T1, human erythrocyte acetylcholinesterase (Homo sapiens, UniProt P22303); experiment: AChE inhibition, modified Ellman's method; type: biochemical; conditions: IC50 BuChE/IC50 AChE; theoretical values from extrapolated plots
T1 construct: solution of hemolyzed erythrocytes diluted 400-fold; from tissue; host or cells: hemolyzed erythrocytes from blood of healthy human donors

Amino acid sequences for entries named in this document (tags omitted). Residues count along the entry.
UniProt P22303, 32-617 isoform P22303-2 limits assumed: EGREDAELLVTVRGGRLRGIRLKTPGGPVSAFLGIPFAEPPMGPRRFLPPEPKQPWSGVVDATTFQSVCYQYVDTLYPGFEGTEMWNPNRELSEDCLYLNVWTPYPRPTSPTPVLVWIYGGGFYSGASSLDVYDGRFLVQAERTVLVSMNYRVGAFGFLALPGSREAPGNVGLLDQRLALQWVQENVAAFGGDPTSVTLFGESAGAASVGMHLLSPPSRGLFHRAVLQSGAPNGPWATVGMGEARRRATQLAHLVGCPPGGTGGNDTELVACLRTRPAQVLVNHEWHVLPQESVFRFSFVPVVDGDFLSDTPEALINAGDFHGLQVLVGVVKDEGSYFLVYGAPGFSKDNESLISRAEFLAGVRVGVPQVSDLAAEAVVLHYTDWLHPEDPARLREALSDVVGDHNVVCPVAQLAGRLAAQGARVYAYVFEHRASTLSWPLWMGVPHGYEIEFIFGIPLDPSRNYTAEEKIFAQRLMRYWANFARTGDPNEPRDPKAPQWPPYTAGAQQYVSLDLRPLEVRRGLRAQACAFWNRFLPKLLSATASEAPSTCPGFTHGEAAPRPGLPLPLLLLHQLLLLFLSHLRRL
UniProt P06276, 29-602: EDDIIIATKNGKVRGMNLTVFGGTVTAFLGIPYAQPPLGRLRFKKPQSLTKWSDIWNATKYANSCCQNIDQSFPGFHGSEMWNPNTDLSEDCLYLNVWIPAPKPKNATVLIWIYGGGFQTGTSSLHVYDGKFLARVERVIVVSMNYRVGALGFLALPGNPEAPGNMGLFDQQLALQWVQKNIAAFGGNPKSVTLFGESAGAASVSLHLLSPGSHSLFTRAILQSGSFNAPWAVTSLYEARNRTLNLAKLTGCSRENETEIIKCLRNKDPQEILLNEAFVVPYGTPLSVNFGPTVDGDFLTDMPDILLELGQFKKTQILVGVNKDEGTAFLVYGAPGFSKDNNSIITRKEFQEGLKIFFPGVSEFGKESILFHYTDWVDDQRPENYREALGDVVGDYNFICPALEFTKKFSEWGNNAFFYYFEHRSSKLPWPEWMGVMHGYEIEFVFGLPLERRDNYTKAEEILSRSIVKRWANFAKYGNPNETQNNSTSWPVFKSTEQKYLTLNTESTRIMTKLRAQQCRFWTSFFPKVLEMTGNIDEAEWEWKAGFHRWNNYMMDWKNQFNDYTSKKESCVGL

[2] = target: BuChE (Homo sapiens, UniProt P06276); experiment: Synergism of antipsychotics with donepezil/rivastigmine (binary mixtures), BuChE; conditions: rivastigmine 0.25 μmol/L + antipsychotic at TPCmax; ComboSyn;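 further: combination index derived by median-effect analysis of combined drug effects on the cholinesterase, with values below 1 meaning synergism, exactly 1 additivity and above 1 antagonism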
[3] = target: AChE (Homo sapiens, UniProt P22303); experiment: Synergism of antipsychotics with donepezil/rivastigmine (binary mixtures), AChE; conditions: ComboSyn;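 further: antipsychotic concentration kept fixed across all measurements, selected from estimated therapeutic plasma levels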
[4] = target: T2, human plasma butyrylcholinesterase (Homo sapiens, UniProt P06276); experiment: BuChE inhibition, modified Ellman's method; type: biochemical; conditions: IC50 AChE/IC50 BuChE; theoretical values from extrapolated plots
T2 construct: The solution of plasma 200-fold diluted with 0.9% NaCl; from tissue; host or cells: citrated plasma from blood of healthy human donors

OCCOCCN1CCN(C2=Nc3ccccc3Sc3ccccc32)CC1 [Quetiapine, quetiapine]
SI AChE [1]: 0.009 *
CI (combination index), BuChE [2]: 1.02
CI (combination index), AChE ([3]; donepezil 0.005 μmol/L + antipsychotic at TPCmax, CI < 1 synergism, > 1 antagonism): 1.83
CI (combination index), AChE ([3]; donepezil 0.01 μmol/L + antipsychotic at TPCmax): 1.50
CI (combination index), AChE ([3]; donepezil 0.02 μmol/L + antipsychotic at TPCmax): 1.23
CI (combination index), AChE ([3]; donepezil 0.05 μmol/L + antipsychotic at TPCmax): 1.25
CI (combination index), AChE ([3]; donepezil 0.1 μmol/L + antipsychotic at TPCmax): 1.24
CI (combination index), AChE ([3]; rivastigmine 5 μmol/L + antipsychotic at TPCmax): 0.25
CI (combination index), AChE ([3]; rivastigmine 10 μmol/L + antipsychotic at TPCmax): 0.37
CI (combination index), AChE ([3]; rivastigmine 15 μmol/L + antipsychotic at TPCmax): 0.39
CI (combination index), AChE ([3]; rivastigmine 25 μmol/L + antipsychotic at TPCmax): 0.49
CI (combination index), AChE ([3]; rivastigmine 40 μmol/L + antipsychotic at TPCmax): 0.40
CI (combination index), AChE ([3]; rivastigmine 50 μmol/L + antipsychotic at TPCmax): 0.57
CI (combination index), AChE ([3]; rivastigmine 75 μmol/L + antipsychotic at TPCmax): 0.61
CI (combination index), AChE ([3]; rivastigmine 100 μmol/L + antipsychotic at TPCmax): 0.59
SI BuChE [4]: 113 *
